We go through one molecule from publication doi:10.1101/2024.10.10.617599v1 (biorxiv, 2024).

The chains behind the UniProt entries cited, without tags or fusion partners. Where a name states a change or a piece, a line headed by the entry shows the natural chain unless it says otherwise.
UniProt Q9H244: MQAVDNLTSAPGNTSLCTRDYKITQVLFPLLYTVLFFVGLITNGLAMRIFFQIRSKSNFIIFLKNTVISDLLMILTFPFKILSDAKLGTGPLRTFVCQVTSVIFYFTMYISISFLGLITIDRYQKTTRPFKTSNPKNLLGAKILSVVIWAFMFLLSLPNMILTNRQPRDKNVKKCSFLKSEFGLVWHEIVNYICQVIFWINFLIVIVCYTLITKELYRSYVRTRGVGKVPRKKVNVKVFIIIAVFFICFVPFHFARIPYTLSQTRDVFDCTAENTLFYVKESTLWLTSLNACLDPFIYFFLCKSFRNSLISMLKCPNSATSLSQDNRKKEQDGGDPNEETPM

This assay deals with hP2Y12R (Homo sapiens, UniProt Q9H244). Kind of assay: radioligand saturation binding, HEK […] membranes.

Regarding `CCOC(=O)c1cc(C#N)c(N2CC(NC(=O)NS(=O)(=O)c3ccc(Cl)s3)C2)nc1C` [AZ12464237, Ethyl 6-(3-(3-((5-chlorothiophen-2-yl)sulfonyl)ureido)azetidin-1-yl)-5-cyano-2-methylnicotinate], binding was put at a Kd of 3.12 ± 0.7 nM.
